# Assay results as given in paper PMC3237002, “Molecular Conversion of Muscarinic Acetylcholine Receptor M5 to Muscarinic Toxin 7 (MT7)-Binding Protein” (Toxins, 2011).
# By UniProt entry, the sequences of proteins in these tests, tags left out.
# UniProt P08912, whole entry: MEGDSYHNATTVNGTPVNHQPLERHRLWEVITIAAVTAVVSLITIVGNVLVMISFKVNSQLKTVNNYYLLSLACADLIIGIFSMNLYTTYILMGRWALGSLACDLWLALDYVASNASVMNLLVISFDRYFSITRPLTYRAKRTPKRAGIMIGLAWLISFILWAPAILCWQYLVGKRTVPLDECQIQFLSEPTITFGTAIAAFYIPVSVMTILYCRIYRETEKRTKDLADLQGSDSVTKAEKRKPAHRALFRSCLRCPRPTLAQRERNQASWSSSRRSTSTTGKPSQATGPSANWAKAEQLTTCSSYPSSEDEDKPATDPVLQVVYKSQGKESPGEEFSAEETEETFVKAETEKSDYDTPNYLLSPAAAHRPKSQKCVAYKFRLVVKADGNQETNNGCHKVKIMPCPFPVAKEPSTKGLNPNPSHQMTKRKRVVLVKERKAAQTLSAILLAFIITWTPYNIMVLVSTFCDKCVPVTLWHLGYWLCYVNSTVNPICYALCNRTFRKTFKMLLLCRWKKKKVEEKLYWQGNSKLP
# UniProt P08912, whole entry K175E/Q184Y/V474E: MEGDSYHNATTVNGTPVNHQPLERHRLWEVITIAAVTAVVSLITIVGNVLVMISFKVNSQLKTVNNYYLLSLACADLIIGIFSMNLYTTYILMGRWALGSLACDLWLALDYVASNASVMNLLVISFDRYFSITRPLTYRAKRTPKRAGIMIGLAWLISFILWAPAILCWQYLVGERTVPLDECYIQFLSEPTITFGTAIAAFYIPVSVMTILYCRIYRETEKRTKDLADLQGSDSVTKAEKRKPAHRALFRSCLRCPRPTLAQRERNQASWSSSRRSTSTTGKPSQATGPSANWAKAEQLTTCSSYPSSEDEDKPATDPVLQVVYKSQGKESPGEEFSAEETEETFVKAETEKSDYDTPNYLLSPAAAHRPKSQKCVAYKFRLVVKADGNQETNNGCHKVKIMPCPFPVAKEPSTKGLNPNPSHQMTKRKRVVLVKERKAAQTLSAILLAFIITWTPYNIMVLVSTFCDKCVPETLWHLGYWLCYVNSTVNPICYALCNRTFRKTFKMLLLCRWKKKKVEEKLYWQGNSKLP
# Tests used:
# M5 receptor = M5 receptor (Homo sapiens, UniProt P08912)
# [1] = molecular target: M5-EYE (M5-E175Y184E474) receptor construct (Homo sapiens, UniProt P08912, K175E/Q184Y/V474E)
smiles,measurement,setting,value
"C[N+](C)(C)CCOC(N)=O [CCh, Carbamoylcholine chloride]",Max. Δ[Ca2+]i,M5 receptor,498 ± 10 nM
same,Max. Δ[Ca2+]i,[1],246 ± 33 nM
